Experimental data reported in patent US12071415B2, “Carbon monoxide prodrugs for the treatment of medical disorders” (Georgia State University Research Foundation, Inc., priority 2018, dated 2024).

Columns and labels:
[1] = Quantitative CO analysis by GC with thermal conductivity detector; type: physicochemical; details: 37° C.
Protocol: An Agilent […] GC System equipped with a thermal conductivity detector was used to detect and quantify CO release yield of the CO prodrugs. Using a gas tight syringe, specific volumes of the headspace of 20-mL headspace vials were sampled and transferred to the injector port maintained at 125° C. Helium was used as the carrier gas with a flow rate of 30 mL/min. Gaseous components of the headspace were separated by passing through a packed column with 60/80 Carboxen-1000 matrix support, […] (4.6 m)×1⁄8 in.×2.1 mm (Supelco). The column was heated 35° C. for 5 min then 225° C. at 20° C./min while the detector was held at 125° C.

[2] = pKa of the conjugate acid of the leaving group; no measurement described; cited from earlier work

## O=C(O)C(=O)N1C(=O)c2ccccc2S1(=O)=O
[1]; 4 to 1 acetonitrile: water, 1 h (FIG. 10)
  CO release yield: around 40%
[1]; ACN:H2O (4:1), 1 hour (FIG. 10)
  CO2 yield: around 40%

## O=C(Oc1ccc([N+](=O)[O-])cc1[N+](=O)[O-])C(=O)Oc1ccc([N+](=O)[O-])cc1[N+](=O)[O-]
[2]
  pKa: 4.09
